Laboratory results as given in patent US20030119716A1, “Methods for screening, treating and diagnosing G-protein coupled receptor-related disorders and compositions thereof” (Wyeth, priority 2001, published 2003).

How the values were obtained:
Type in all cases: cell-based, Chinese hamster
[1] = test system: c-fos SRE activation in CHO cells stably expressing D2R; test: SRE-luciferase reporter assay, quinpirole-stimulated c-fos SRE activation in CHO-D2R cells
[2] = test system: Erk1/2 phosphorylation; test: Western blot of phospho-Erk1/2 in CHO-D2R cells
Protocol: Luciferase and β-Gal activities were measured after incubation with quinpirole for 5 hours. Numbers shown represent at least two independent experiments, each with triplicate transfections. […] Cell lysates were prepared by incubating cells for 5 minutes on ice with a lysis buffer containing […] NaCl, 50 mM Tris, pH 7.5, 5 mM EDTA, 1% Triton, and a mixture of protease inhibitors. Cells were then scraped off plates and sonicated. The detergent-insoluble material was removed by microcentrifugation for 10 minutes at 4° C. An equal amount of protein was run on SDS gels (Novex, Carlsbad, Calif.) and transferred to nitrocellulose (Bio-Rad, Hercules, Calif.). […] The membrane was washed, incubated for 1 hour in TBS containing appropriate HRP-conjugated secondary antibodies, washed again, and developed with the ECL reagent (Amersham Pharmacia Biotech, Piscataway, N.J.).

[3] = test system: Akt phosphorylation; test: Western blot of phospho-Akt in CHO-D2R cells

CCCN1CCC[C@@H]2Cc3n[nH]cc3C[C@H]21 [quinpirole]
SRE activation on quinpirole stimulation [1]: dose-dependent SRE activation; also recorded: stimulates c-fos SRE activation
induction of the luciferase activity (SRE activation) [1]: approximately 7 fold
maximal activation of the SRE-reporter gene [1]: about 20 fold
Erk1/2 phosphorylation on quinpirole stimulation [2]: resulted in phosphorylation of Erk1/2
Akt phosphorylation on quinpirole stimulation [3]: elicited phosphorylation of Akt

Entries after “also recorded” stand apart in the source; their conditions may differ.
